Experimental data reported in PubChem BioAssay AID493227 (Broad Institute, 2011).
The source made the active and inactive calls.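 Rule for the calls: active = fitted curve reaches 40% activation at a dose no higher than the top dose validly tested; inconclusive = flat curve between 30 and 70% activation, or poor fit; inactive = the rest, including signal moving against the expected rise.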

Test system: U2OS HRE-luciferase reporter, luminescence, HIF activation
Assay: HRE-luciferase activation in U2OS cells, dose response, cell-based, luminescence, U2OS HRE-luc, dry powder, set 8 (AID 493227)
How it was run: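 Material: human U2OS osteosarcoma cells stably carrying 3×HRE-luciferase reporter. Input: 6,000 cells per well. Technique: Steady-Glo luminescence. Medium: phenol red-free DMEM with 10% FBS, no hygromycin. Times: 24 h plating, 24 h compound treatment.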

Structure (SMILES): O=c1[nH]c2ccccc2n1C1CCN(Cc2ccc(O)c3ncccc23)CC1
- AC40: inactive: > 38 µM
